Each block holds one substance with its values, some of them ahead of it.
Experiments:
[1] = target: ePHF tau (tau in the form of paired helical filaments, immobilized on plate) (UniProt P10636); assay: ePHF tau ELISA; 4.1 ng/mL; rep 1
[2] = target: ePHF tau (tau in the form of paired helical filaments, immobilized on plate) (UniProt P10636); assay: ePHF tau ELISA; 333.3 ng/mL; rep 2
[3] = target: ePHF tau (tau in the form of paired helical filaments, immobilized on plate) (UniProt P10636); assay: ePHF tau ELISA; 4.1 ng/mL; rep 2
[4] = target: ePHF tau (tau in the form of paired helical filaments, immobilized on plate) (UniProt P10636); assay: ePHF tau ELISA; 12.3 ng/mL; rep 1
[5] = target: ePHF tau (tau in the form of paired helical filaments, immobilized on plate) (UniProt P10636); assay: ePHF tau ELISA; […]; rep 1
[6] = target: ePHF tau (tau in the form of paired helical filaments, immobilized on plate) (UniProt P10636); assay: ePHF tau ELISA; 333.3 ng/mL; rep 1
[7] = target: ePHF tau (tau in the form of paired helical filaments, immobilized on plate) (UniProt P10636); assay: ePHF tau ELISA; 37.0 ng/mL; rep 2
[8] = target: ePHF tau (tau in the form of paired helical filaments, immobilized on plate) (UniProt P10636); assay: ePHF tau ELISA; 0.5 ng/mL; rep 1
[9] = target: ePHF tau (tau in the form of paired helical filaments, immobilized on plate) (UniProt P10636); assay: ePHF tau ELISA; 37.0 ng/mL; rep 1
[10] = target: ePHF tau (tau in the form of paired helical filaments, immobilized on plate) (UniProt P10636); assay: ePHF tau ELISA; 111.1 ng/mL; rep 2
[11] = target: ePHF tau (tau in the form of paired helical filaments, immobilized on plate) (UniProt P10636); assay: ePHF tau ELISA; 1000.0 ng/mL; rep 2
[12] = target: ePHF tau (tau in the form of paired helical filaments, immobilized on plate) (UniProt P10636); assay: ePHF tau ELISA; […]; rep 2
[13] = target: ePHF tau (tau in the form of paired helical filaments, immobilized on plate) (UniProt P10636); assay: ePHF tau ELISA; 0.5 ng/mL; rep 2
[14] = target: ePHF tau (tau in the form of paired helical filaments, immobilized on plate) (UniProt P10636); assay: ePHF tau ELISA; 111.1 ng/mL; rep 1
[15] = target: ePHF tau (tau in the form of paired helical filaments, immobilized on plate) (UniProt P10636); assay: ePHF tau ELISA; 1000.0 ng/mL; rep 1
[16] = target: ePHF tau (tau in the form of paired helical filaments, immobilized on plate) (UniProt P10636); assay: ePHF tau ELISA; 12.3 ng/mL; rep 2
[17] = target: wild-type tau (Tau441) (human) (UniProt P10636); assay: ELISA, Tau441 on plate; antibody at 0.0 ng/mL [sic]
[18] = target: wild-type tau (Tau441) (human) (UniProt P10636); assay: ELISA, Tau441 on plate; antibody at 37.0 ng/mL
[19] = target: wild-type tau (Tau441) (human) (UniProt P10636); assay: ELISA, Tau441 on plate; antibody at 333.3 ng/mL
[20] = target: wild-type tau (Tau441) (human) (UniProt P10636); assay: ELISA, Tau441 on plate; antibody at 4.1 ng/mL
[21] = target: wild-type tau (Tau441) (human) (UniProt P10636); assay: ELISA, Tau441 on plate; antibody at 111.1 ng/mL
[22] = target: wild-type tau (Tau441) (human) (UniProt P10636); assay: ELISA, Tau441 on plate; antibody at […]
[23] = target: wild-type tau (Tau441) (human) (UniProt P10636); assay: ELISA, Tau441 on plate; antibody at 1000.0 ng/mL
[24] = target: wild-type tau (Tau441) (human) (UniProt P10636); assay: ELISA, Tau441 on plate; antibody at 12.3 ng/mL

OD450 [1]: 0.2 | OD450 [2]: 1.6 | OD450 [3]: 0.2 | OD450 [4]: 0.5 | OD450 [5]: 0.1 | OD450 [6]: 1.5 | OD450 [7]: 0.9 | OD450 [8]: 0.1 | OD450 [9]: 0.8 | OD450 [10]: 1.3 | OD450 [11]: 2.2 | OD450 [12]: 0.1 | OD450 [13]: 0.1 | OD450 [14]: 1.2 | OD450 [15]: 2.1 | OD450 [16]: 0.5
Substance: PHF-1 control anti-tau antibody (antibody; other documents disagree on this pair)

OD450 [17]: 0.1 OD450 | OD450 [18]: 0.1 OD450 | OD450 [19]: 0.1 OD450 | OD450 [20]: 0.1 OD450 | OD450 [21]: 0.1 OD450 | OD450 [22]: 0.1 OD450 | OD450 [23]: 0.1 OD450 | OD450 [24]: 0.1 OD450
Substance: PHF-1 control antibody

Source: US20220339270A1
